Only a part is listed here, and it is no random draw. Calls of active or inactive are those of the source. Rule as the data show it: active = inhibition above about 34% (passing the limit was not always enough); inactive = the rest.

Chains of the proteins cited; added tags and fusions are not shown.
UniProt O00574, whole entry: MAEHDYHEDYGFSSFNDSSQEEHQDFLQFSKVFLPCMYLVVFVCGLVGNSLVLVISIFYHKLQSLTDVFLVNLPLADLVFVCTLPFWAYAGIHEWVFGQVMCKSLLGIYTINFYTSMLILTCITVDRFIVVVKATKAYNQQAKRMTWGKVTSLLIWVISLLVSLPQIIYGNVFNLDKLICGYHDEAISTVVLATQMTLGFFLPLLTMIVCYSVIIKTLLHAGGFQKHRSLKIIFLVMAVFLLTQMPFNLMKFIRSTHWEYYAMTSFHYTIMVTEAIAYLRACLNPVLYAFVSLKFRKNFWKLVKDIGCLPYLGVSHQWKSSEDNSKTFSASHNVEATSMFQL

In this assay the target is C-X-C chemokine receptor type 6 (Homo sapiens) (UniProt O00574). As to the kind of experiment: CXCR6 receptor inhibitors, primary screen, cell-based, beta-arrestin, luminescence, CHO-K1 PathHunter, 1536-well (AID 602244).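 Also: antagonist mode with CXCL16 agonist at 10 nM final; 0% = 10 nM CXCL16 with DMSO and 100% = unstimulated wells without agonist.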 Particulars: at 20 µM, hits give high values.
As for `CCC(=O)N(c1ccccc1)C1(COC)CCN(CCn2nnn(CC)c2=O)CC1`, the inhibition is inactive: -2.7%. For the molecule `CCC(=O)N(c1ccccc1)C1(COC)CCN(CCc2cccs2)CC1`, the inhibition is inactive: 1.6%.

The values above are taken from PubChem BioAssay AID602244 (Sanford-Burnham Center for Chemical Genomics, 2012).
